{"source": "patent US12178871B2", "about": "(priority 2018, dated 2024)", "system": "influenza virus subtype A mice-lung adaptive strain FM1", "conditions": "mouse, in vivo", "data": [{"compound": "NC(=O)c1ncn([C@@H]2O[C@H](CO)[C@@H](O)[C@H]2O)n1", "note": "[Ribavirin]", "values": [{"measurement": "Death rate %", "result": 63, "unit": "%"}]}]}
